Experiments:
[1] = system: dopamine D2 receptor (caudate nucleus); experiment: I125-LSD displacement from rat brain sections, caudate (dopamine D2); assay type: binding, Sprague-Dawley rats; details: 1 micromolar compound, 1 nanomolar I125-LSD, 30 minutes room temperature
Protocol: (§1) Animals (Sprague-Dawley rats) were sacrificed and brains were rapidly dissected and frozen in isopentane maintained at -42° C. Horizontal sections were prepared on a cryostat and maintained at -20° C.
(§2) Lysergic acid diethylamide (LSD) is a potent 5HT2A receptor and dopamine D2 receptor ligand. An indication of the selectivity of compounds for either or both of these receptors involves displacement of radiolabeled-bound LSD from pre-treated brain sections. For these studies, radiolabeled I^125 -LSD (NEN Life Sciences, Boston, Mass., Catalogue number NEX-199) was utilized; spiperone (RBI, Natick, Mass. Catalogue number s-128), a 5HT2A receptor and dopamine D2 receptor antagonist, was also utilized. Buffer consisted of 50 nanomolar TRIS-HCl, pH 7.4.
(§3) Brain sections were incubated in (a) Buffer plus 1 nanomolar I^125 -LSD; (b) Buffer plus 1 nanomolar I^125 -LSD and 1 micromolar spiperone; or Buffer plus 1 nanomolar I^125 -LSD and 1 micromolar 116100 for 30 minutes at room temperature. Sections were then washed 2× 10 minutes at 4° C. in Buffer, followed by 20 seconds in distilled H2 O. Slides were then air-dried.
(§4) After drying, sections were apposed to x-ray film (Kodak Hyperfilm) and exposed for 4 days.

[2] = system: 5HT2A receptor (cerebral cortex); experiment: I125-LSD displacement from rat brain sections, cerebral cortex (5HT2A); assay type: binding, Sprague-Dawley rats; details: 1 micromolar compound, 1 nanomolar I125-LSD, 30 minutes room temperature
Protocol: as §1, §2, §3, §4

O=C(CCCN1CCC2(CC1)C(=O)NCN2c1ccccc1)c1ccc(F)cc1 [spiperone, reference compound]
displacement of I125-LSD from caudate [1]: displaces the I^125 -LSD from these receptors on both the cortex and the caudate
displacement of I125-LSD from cortex [2]: displaces the I^125 -LSD from these receptors on both the cortex and the caudate

From patent publication US6107324A, “5-HT2A receptor inverse agonists” (priority 1999, dated 2000)
